Cyclic peptide permeability, from CycPeptMPDB

Data: CycPeptMPDB; original report Kelly et al. 2021, doi:10.1021/jacs.0c06115.

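The data file gives no further conditions (lipid, pH, time, direction or concentration), and values from different papers need not be comparable. The list need not hold all peptides of the study. Entries at the database's floor value (log10 P of -10) are not listed.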

PAMPA measures passive passage through an artificial lipid membrane. P is given in units of 10^-6 cm/s (from log10 values with two decimals); larger means faster passage.

PAMPA (10^-6 cm/s) | structure (SMILES)
1.5 | CC(=O)N1CCC[C@@H]1C(=O)N(C)[C@@H](CC(C)C)C(=O)N[C@@H]1C(=O)N(C)[C@H](CC(C)C)C(=O)N[C@H](CC(C)C)C(=O)N(C)[C@H](CC(C)C)C(=O)N[C@@H](C)C(=O)N[C@@H](CC(C)C)C(=O)N2CCC[C@H]2C(=O)O[C@@H]1C
2 | CC(=O)N1CCC[C@@H]1C(=O)N(C)[C@H](CC(C)C)C(=O)N[C@@H]1C(=O)N(C)[C@@H](CC(C)C)C(=O)N(C)[C@H](CC(C)C)C(=O)N(C)[C@@H](CC(C)C)C(=O)N(C)[C@@H](C)C(=O)N[C@@H](CC(C)C)C(=O)N2CCC[C@H]2C(=O)O[C@@H]1C
0.13 | CC(=O)N1CCC[C@H]1C(=O)N(C)[C@H](CC(C)C)C(=O)N[C@@H]1C(=O)N[C@@H](CC(C)C)C(=O)N(C)[C@@H](CC(C)C)C(=O)N[C@H](CC(C)C)C(=O)N[C@@H](C)C(=O)N[C@@H](CC(C)C)C(=O)N2CCC[C@H]2C(=O)O[C@@H]1C
0.85 | CC(=O)N1CCC[C@H]1C(=O)N(C)[C@@H](CC(C)C)C(=O)N[C@@H]1C(=O)N[C@@H](CC(C)C)C(=O)N[C@@H](CC(C)C)C(=O)N(C)[C@@H](CC(C)C)C(=O)N[C@@H](C)C(=O)N[C@@H](CC(C)C)C(=O)N2CCC[C@H]2C(=O)O[C@@H]1C
10 | CC(=O)N1CCC[C@@H]1C(=O)N(C)[C@H](CC(C)C)C(=O)N[C@@H]1C(=O)N(C)[C@H](CC(C)C)C(=O)N(C)[C@H](CC(C)C)C(=O)N[C@@H](CC(C)C)C(=O)N(C)[C@@H](C)C(=O)N[C@H](CC(C)C)C(=O)N2CCC[C@@H]2C(=O)O[C@@H]1C
2.8 | CC(=O)N1CCC[C@@H]1C(=O)N(C)[C@@H](CC(C)C)C(=O)N[C@@H]1C(=O)N(C)[C@@H](CC(C)C)C(=O)N(C)[C@@H](CC(C)C)C(=O)N(C)[C@@H](CC(C)C)C(=O)N[C@@H](C)C(=O)N[C@@H](CC(C)C)C(=O)N2CCC[C@@H]2C(=O)O[C@@H]1C
0.15 | CC(=O)N1CCC[C@@H]1C(=O)N(C)[C@@H](CC(C)C)C(=O)N[C@@H]1C(=O)N[C@@H](CC(C)C)C(=O)N[C@H](CC(C)C)C(=O)N[C@H](CC(C)C)C(=O)N[C@H](C)C(=O)N[C@H](CC(C)C)C(=O)N2CCC[C@H]2C(=O)O[C@@H]1C
0.23 | CC(=O)N1CCC[C@@H]1C(=O)N(C)[C@@H](CC(C)C)C(=O)N[C@@H]1C(=O)N(C)[C@@H](CC(C)C)C(=O)N[C@H](CC(C)C)C(=O)N[C@H](CC(C)C)C(=O)N[C@@H](C)C(=O)N[C@@H](CC(C)C)C(=O)N2CCC[C@@H]2C(=O)O[C@@H]1C
5.6 | CC(=O)N1CCC[C@H]1C(=O)N(C)[C@H](CC(C)C)C(=O)N[C@@H]1C(=O)N(C)[C@H](CC(C)C)C(=O)N[C@H](CC(C)C)C(=O)N(C)[C@@H](CC(C)C)C(=O)N(C)[C@@H](C)C(=O)N[C@@H](CC(C)C)C(=O)N2CCC[C@H]2C(=O)O[C@@H]1C
3.4 | CC(=O)N1CCC[C@@H]1C(=O)N(C)[C@@H](CC(C)C)C(=O)N[C@@H]1C(=O)N[C@H](CC(C)C)C(=O)N(C)[C@H](CC(C)C)C(=O)N[C@H](CC(C)C)C(=O)N(C)[C@H](C)C(=O)N[C@H](CC(C)C)C(=O)N2CCC[C@H]2C(=O)O[C@@H]1C
4 | CC(=O)N1CCC[C@H]1C(=O)N(C)[C@H](CC(C)C)C(=O)N[C@@H]1C(=O)N[C@H](CC(C)C)C(=O)N(C)[C@H](CC(C)C)C(=O)N[C@@H](CC(C)C)C(=O)N(C)[C@@H](C)C(=O)N[C@@H](CC(C)C)C(=O)N2CCC[C@@H]2C(=O)O[C@@H]1C
1.1 | CC(=O)N1CCC[C@@H]1C(=O)N(C)[C@H](CC(C)C)C(=O)N[C@@H]1C(=O)N[C@@H](CC(C)C)C(=O)N(C)[C@H](CC(C)C)C(=O)N(C)[C@@H](CC(C)C)C(=O)N(C)[C@@H](C)C(=O)N[C@H](CC(C)C)C(=O)N2CCC[C@@H]2C(=O)O[C@@H]1C
2.6 | CC(=O)N1CCC[C@@H]1C(=O)N(C)[C@H](CC(C)C)C(=O)N[C@@H]1C(=O)N(C)[C@@H](CC(C)C)C(=O)N(C)[C@H](CC(C)C)C(=O)N(C)[C@@H](CC(C)C)C(=O)N(C)[C@H](C)C(=O)N[C@@H](CC(C)C)C(=O)N2CCC[C@@H]2C(=O)O[C@@H]1C
5.2 | CC(=O)N1CCC[C@@H]1C(=O)N(C)[C@@H](CC(C)C)C(=O)N[C@@H]1C(=O)N[C@H](CC(C)C)C(=O)N(C)[C@H](CC(C)C)C(=O)N[C@@H](CC(C)C)C(=O)N(C)[C@@H](C)C(=O)N[C@@H](CC(C)C)C(=O)N2CCC[C@@H]2C(=O)O[C@@H]1C
0.028 | CC(=O)N1CCC[C@H]1C(=O)N[C@@H]1C(=O)N(C)[C@H](CC(C)C)C(=O)N[C@@H](CC(C)C)C(=O)N[C@@H](CC(C)C)C(=O)N[C@@H](CC(C)C)C(=O)N(C)[C@H](C)C(=O)N[C@@H](CC(C)C)C(=O)N2CCC[C@@H]2C(=O)O[C@@H]1C
11 | CC(=O)N1CCC[C@H]1C(=O)N[C@@H]1C(=O)N[C@H](CC(C)C)C(=O)N(C)[C@H](CC(C)C)C(=O)N[C@@H](CC(C)C)C(=O)N(C)[C@@H](CC(C)C)C(=O)N(C)[C@H](C)C(=O)N[C@@H](CC(C)C)C(=O)N2CCC[C@@H]2C(=O)O[C@@H]1C
3.2 | CC(=O)N1CCC[C@H]1C(=O)N(C)[C@H](CC(C)C)C(=O)N[C@@H]1C(=O)N[C@@H](CC(C)C)C(=O)N(C)[C@@H](CC(C)C)C(=O)N(C)[C@H](CC(C)C)C(=O)N[C@H](C)C(=O)N[C@@H](CC(C)C)C(=O)N2CCC[C@@H]2C(=O)O[C@@H]1C
5.6 | CC(=O)N1CCC[C@@H]1C(=O)N(C)[C@H](CC(C)C)C(=O)N[C@@H]1C(=O)N[C@H](CC(C)C)C(=O)N[C@H](CC(C)C)C(=O)N(C)[C@@H](CC(C)C)C(=O)N(C)[C@@H](C)C(=O)N[C@@H](CC(C)C)C(=O)N2CCC[C@@H]2C(=O)O[C@@H]1C
0.021 | CC(=O)N1CCC[C@@H]1C(=O)N(C)[C@@H](CC(C)C)C(=O)N[C@@H]1C(=O)N[C@@H](CC(C)C)C(=O)N[C@@H](CC(C)C)C(=O)N[C@@H](CC(C)C)C(=O)N[C@@H](C)C(=O)N[C@H](CC(C)C)C(=O)N2CCC[C@@H]2C(=O)O[C@@H]1C
2.2 | CC(=O)N1CCC[C@H]1C(=O)N(C)[C@H](CC(C)C)C(=O)N[C@@H]1C(=O)N[C@@H](CC(C)C)C(=O)N(C)[C@H](CC(C)C)C(=O)N(C)[C@@H](CC(C)C)C(=O)N(C)[C@@H](C)C(=O)N[C@H](CC(C)C)C(=O)N2CCC[C@H]2C(=O)O[C@@H]1C
7.2 | CC(=O)N1CCC[C@H]1C(=O)N(C)[C@H](CC(C)C)C(=O)N[C@@H]1C(=O)N[C@@H](CC(C)C)C(=O)N[C@@H](CC(C)C)C(=O)N[C@H](CC(C)C)C(=O)N(C)[C@@H](C)C(=O)N[C@@H](CC(C)C)C(=O)N2CCC[C@H]2C(=O)O[C@@H]1C

2 of these entries, quoted again:

{"smiles": "CC(=O)N1CCC[C@@H]1C(=O)N(C)[C@@H](CC(C)C)C(=O)N[C@@H]1C(=O)N[C@@H](CC(C)C)C(=O)N[C@@H](CC(C)C)C(=O)N[C@@H](CC(C)C)C(=O)N[C@@H](C)C(=O)N[C@H](CC(C)C)C(=O)N2CCC[C@@H]2C(=O)O[C@@H]1C", "PAMPA (10^-6 cm/s)": "0.021"}
{"smiles": "CC(=O)N1CCC[C@@H]1C(=O)N(C)[C@H](CC(C)C)C(=O)N[C@@H]1C(=O)N[C@@H](CC(C)C)C(=O)N(C)[C@H](CC(C)C)C(=O)N(C)[C@@H](CC(C)C)C(=O)N(C)[C@@H](C)C(=O)N[C@H](CC(C)C)C(=O)N2CCC[C@@H]2C(=O)O[C@@H]1C", "PAMPA (10^-6 cm/s)": "1.1"}